Experimental data taken from patent publication US4900730A, “Preparation which promotes the absorption of peptides” (priority 1981, dated 1990).

Experiment: Rectal circulation: Cephalothin disappeared by absorption (Examples 10-14, 16-18)
Conditions: for Cephalothin disappeared by absorption, Osmotic pressure X 4: four-fold tonic; for Cephalothin disappeared by absorption, Osmotic pressure X 1: isotonic
Experimental: The experiments were conducted similarly as in Example 1. […] Each sample was diluted and the quantity of Cephalothin disappeared was determined by UV-spectrophotometer of high-speed liquid chromatography.

[1] = Table 8, promoter 0.1 W/V %, as in Example 10
[2] = Table 12, acid compound 0.1 W/V%, Example 10 repeated

Cephalothin disappeared by absorption, Osmotic pressure X 4 [2] | Cephalothin disappeared by absorption, Osmotic pressure X 1 [2] | Substance | Cephalothin disappeared by absorption, Osmotic pressure X 4 [1] | Cephalothin disappeared by absorption, Osmotic pressure X 1 [1] | Cephalothin disappeared by absorption, Osmotic pressure X 2 (Table 8, promoter 0.1 W/V %, as in Example 10, two-fold tonic)
– | – | 1-naphthol-3,6-disulfonic acid [NDS] | 31.6 percents | 12.6 percents | 19.8 percents
11.5 percents | 4.0 percents | glycero-3-phosphoric acid | – | – | –
